Consider 80 compounds from PubChem BioAssay AID652054 (National Center for Advancing Translational Sciences (NCATS), 2013).

Chains of the proteins cited; added tags and fusions are not shown.
UniProt P35462, whole entry: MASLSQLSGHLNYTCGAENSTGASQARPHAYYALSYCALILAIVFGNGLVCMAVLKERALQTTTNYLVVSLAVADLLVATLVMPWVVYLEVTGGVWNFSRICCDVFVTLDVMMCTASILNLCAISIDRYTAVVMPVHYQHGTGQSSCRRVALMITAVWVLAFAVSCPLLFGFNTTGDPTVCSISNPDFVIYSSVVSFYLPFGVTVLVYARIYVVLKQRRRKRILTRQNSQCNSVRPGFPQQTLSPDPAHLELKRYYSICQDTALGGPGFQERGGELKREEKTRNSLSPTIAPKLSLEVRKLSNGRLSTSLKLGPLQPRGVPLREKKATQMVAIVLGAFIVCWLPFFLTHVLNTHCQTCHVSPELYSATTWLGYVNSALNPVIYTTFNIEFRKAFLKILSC

This is a selection; strong and weak results do not stand in their true shares. Records with an inconclusive call do not appear. The source made the active and inactive calls. Rule as the data show it: active = max response below about -50%; inconclusive = no clear call, values can overlap the other calls; inactive = above that.
% is scaled to controls: 0 for no effect and ±100 for the full control effect.

In the experiment the target is D(3) dopamine receptor (Homo sapiens) (UniProt P35462). Put plainly: qHTS of D3 Dopamine Receptor Antagonist: qHTS. The following applies: D3R cells, DiscoveRx beta-arrestin luminescence, antagonist mode; active compounds read low. From the text:
D3 DARs represent a very important target for the treatment of several neuropsychiatric disorders. Indeed, one of the most promising therapeutic applications for the D3 DAR is in the area of addiction and related disorders. […] These findings have been observed with a number of addictive substances including cocaine, amphetamine, nicotine, and alcohol. […] Antagonism of the D3 DAR may also be therapeutic in the treatment of schizophrenia or psychosis. […] Since the D3 DAR is expressed in areas of the CNS associated with the control of mood and emotion, it has been hypothesized that selective antagonism of the D3 DAR may be effective in treating psychosis without inducing the motor side effects typically seen with D2 DAR antagonists.
This part of the project aims to discover novel antagonist.
NIH Chemical Genomics Center [NCGC]
NIH Molecular Libraries Probe Centers Network [MLPCN]
Assay Submitter (PI): David Sibley, NINDS
Freshly passaged cells are plated in 1536 well white, solid bottom plates at a density of 1500 cells/well in 3microl of complete media. After an overnight incubation at 37 degrees C in 5% CO2, cells are loaded with 23nl of test compound from the compound library (as well as dopamine controls) using a 1536 pintool and incubated at 37 degrees C for 90 minutes. Two microliters of DiscoveRx reagent is then added to all cells, and they are incubated for an additional 30 - 60 minutes at room temperature. Following incubation, luminescence is measured on a ViewLux CCD-based luminometer reader using a 20 sec exposure time.
As to `CP(=O)(Nc1ccccc1F)Oc1ccccc1` (stereo not given), the max response, negative = inhibition is inactive: 11%.
With `CC(C)c1ccc(OP(C)(=O)Nc2ccc(SC(F)(F)F)cc2)cc1` (stereo not given), the max response, negative = inhibition is inactive: 7.27%.
Regarding `O=C(OCCN1CCN(CCOCc2ccccc2)CC1)C(O)(c1ccccc1)c1ccccc1`, the max response, negative = inhibition is inactive: -18.4%.
`CCOC(=O)c1ccc(NP(C)(=O)Oc2ccc(F)cc2)cc1` (stereo not given): the max response, negative = inhibition is inactive: 6.03%.
Under `COc1ccc(OP(C)(=O)Nc2ccc(SC(F)(F)F)cc2)cc1` (stereo not given) stands inactive: -8.96%; under `Cc1c([N+](=O)[O-])cc([N+](=O)[O-])c(Br)c1[N+](=O)[O-]`, inactive: 20%; under `CCN(CC)CCCOC(=O)C(O)(c1ccccc1)C1CCCCC1` (stereo not given), active: -73.9%.
The value for `CP(=O)(Nc1ccccc1)Oc1ccc(F)cc1` (stereo not given) was inactive: 7.05%; that for `CCCCCOc1ccc(NP(C)(=O)Oc2ccc(Cl)cc2Cl)cc1` (stereo not given) was inactive: -10.2%.
On to `COc1ccc(OP(C)(=O)Nc2cccc(Br)c2)cc1` (stereo not given), for which the max response, negative = inhibition was inactive: 18.2%.
With `CN(C)CCOC(=O)C(O)(c1ccccc1)C1CCCCC1` (stereo not given), the max response, negative = inhibition is active: -77.1%.
For the compound `COc1ccc(NP(C)(=O)Oc2ccccc2OC)cc1` (stereo not given), the max response, negative = inhibition was inactive: 0.0694%.
As for `O=[N+]([O-])c1ccc(OP2(=O)COCCO2)cc1` (stereo not given), the max response, negative = inhibition was inactive: -24.3%.
In the case of `Cc1c(C(c2ccc3c(c2)OCO3)c2c(C)n(C)n(-c3ccccc3)c2=O)c(=O)n(-c2ccccc2)n1C.O=[N+]([O-])c1cc([N+](=O)[O-])c(O)c([N+](=O)[O-])c1`, the max response, negative = inhibition is inactive: 13.1%.
Regarding `CP(=O)(Nc1ccc(SC(F)(F)F)cc1)Oc1ccc(F)cc1` (stereo not given), the max response, negative = inhibition was inactive: -13%.
For the compound `CCOP(C)(=S)SCC(=O)NC(C)(CC)C(=O)O` (stereo not given), the max response, negative = inhibition is inactive: -7.74%.
Under `CP(=O)(Nc1ccc2c(c1)OCCO2)Oc1ccccc1` (stereo not given) stands inactive: -19.7%.
As to `Cc1ccccc1NP(C)(=O)Nc1ccccc1C`, the max response, negative = inhibition was inactive: 5.98%.
Under `COc1ccc(OP(C)(=O)Nc2ccc(Br)cc2)cc1` (stereo not given) stands inactive: 5.39%; under `CCN(CC)CC(O)COC(=O)C(O)(c1ccccc1)C1CCCCC1` (stereo not given), active: -77.3%.
Consider `O=C(OCCCN1CCCC1)C(O)(c1ccccc1)C1CCCCC1` (stereo not given), for which the max response, negative = inhibition was active: -82.2%.
With `COc1ccccc1OP(C)(=O)Nc1c(C)n(C)n(-c2ccccc2)c1=O` (stereo not given), the max response, negative = inhibition is inactive: 21.2%.
Turning to `CCc1ccc(OP(C)(=O)Nc2cccnc2)cc1` (stereo not given), the max response, negative = inhibition was inactive: 18.3%.
For the compound `CP(=O)(Oc1ccccc1)N1CCOC1=O` (stereo not given), the max response, negative = inhibition is inactive: -8.8%.
Consider `CC(C)(C)c1ccc(OP(C)(=O)O)cc1`, for which the max response, negative = inhibition is inactive: -6.06%.
Take `COc1ccccc1OP(C)(=O)Nc1ccccc1Br` (stereo not given): the max response, negative = inhibition was inactive: 3.52%.
In the case of `CP(=O)(Nc1ccc(Cl)cc1)Oc1ccc(F)cc1` (stereo not given), the max response, negative = inhibition was inactive: 8.82%.
The value for `Nc1ccc2c(ccc3cccnc32)n1.O=[N+]([O-])c1cc([N+](=O)[O-])c(O)c([N+](=O)[O-])c1` was inactive: 2.9%; that for `CCOC(=O)c1ccc(NP(C)(=O)Oc2ccc(Cl)cc2)cc1` (stereo not given) was inactive: 6.25%.
On to `CP(=O)(OC12CC3CC(CC(C3)C1)C2)OC12CC3CC(CC(C3)C1)C2`, for which the max response, negative = inhibition was inactive: 3.24%.
Turning to `Cc1cc(C)cc(OP(C)(=O)Nc2cccc(C(F)(F)F)c2)c1` (stereo not given), the max response, negative = inhibition is inactive: -6.63%.
Regarding `COc1ccccc1OP(C)(=O)Nc1ccc(C)c(C)c1` (stereo not given), the max response, negative = inhibition was inactive: 2.57%.
Under `COc1ccc(OP(C)(=O)Nc2ccccc2Br)cc1` (stereo not given) stands inactive: 8.41%.
The value for `CP(=O)(OCCOc1ccccc1)OCCOc1ccccc1` was inactive: -6.46%.
For the compound `CP(=O)(Nc1ccc(Cl)cc1Cl)Oc1ccccc1` (stereo not given), the max response, negative = inhibition was inactive: -12.2%.
Under `CCCCCCCCCCCCCCCC1C[N+](C)(C)CCOP(C)(=O)O1` (stereo not given) stands inactive: 0%; under `COc1ccccc1OP(C)(=O)Nc1ccc(Br)cc1` (stereo not given), inactive: 6.33%.
For `COc1ccc(OP(C)(=O)Nc2ccccn2)cc1` (stereo not given), the max response, negative = inhibition is inactive: 1.58%.
Turning to `CN(C)CCOC(=O)C(O)(c1ccccc1)C1CCCC1` (stereo not given), the max response, negative = inhibition was inactive: -24.1%.
With `Cc1c(NP(C)(=O)Oc2ccc(C(C)C)cc2)c(=O)n(-c2ccccc2)n1C` (stereo not given), the max response, negative = inhibition was inactive: 16.1%.
Take `COc1ccccc1OP(C)(=O)Nc1ccc(C)cc1C` (stereo not given): the max response, negative = inhibition is inactive: -6.94%.
In the case of `CP(=O)(Nc1ccccn1)Oc1ccccc1` (stereo not given), the max response, negative = inhibition was inactive: -0.961%.
Regarding `CCc1ccc(OP(C)(=O)O)cc1`, the max response, negative = inhibition is inactive: 7.36%.
Take `CCN(CC)CCCOC(=O)C(O)(c1ccccc1)c1ccccc1`: the max response, negative = inhibition was inactive: -0.2%.
For the compound `O=[N+]([O-])c1cc([N+](=O)[O-])c(Nc2cccnc2)c([N+](=O)[O-])c1`, the max response, negative = inhibition is inactive: 0.176%.
The value for `O=[N+]([O-])c1ccc2c(c1)C=Nc1ccccc1O2` was inactive: -2.23%; that for `Cc1cccc(C)c1OP(C)(N)=O` (stereo not given) was inactive: -3.43%.
Turning to `CC(C)(C)c1ccc(OP(C)(=O)Nc2ccc(SC(F)(F)F)cc2)cc1` (stereo not given), the max response, negative = inhibition is inactive: -18.1%.
Regarding `Cc1ccc(NP(C)(=O)Oc2ccccc2)c(C)c1` (stereo not given), the max response, negative = inhibition is inactive: 4.62%.
As for `COc1ccccc1OP(C)(=O)Nc1ccc(C)cc1` (stereo not given), the max response, negative = inhibition was inactive: 8.58%.
The value for `CCOC(=O)c1ccc(NP(C)(=O)Oc2ccccc2)cc1` (stereo not given) was inactive: 2.62%; that for `Cc1cc(C)cc(OP(C)(N)=O)c1` (stereo not given) was inactive: -4.55%; that for `COc1ccc(OP(C)(=O)Nc2cccc(F)c2)cc1` (stereo not given) was inactive: 9.36%.
`COc1ccccc1OP(C)(=O)Nc1cc(Cl)ccc1C` (stereo not given): the max response, negative = inhibition is inactive: -4.28%.
The value for `CP(=S)(Nn1cnnc1)Oc1ccccc1` (stereo not given) was inactive: -16.8%; that for `CP(=O)(Nc1ccccc1Br)Oc1ccccc1` (stereo not given) was inactive: -13.5%; that for `COc1ccccc1OP(C)(=O)Nc1ccccc1` (stereo not given) was inactive: 0.826%.
The value for `CP(=O)(Oc1ccccc1)OC(c1ccccc1)C(F)(F)F` (stereo not given) was inactive: -7.12%.
`CP(=O)(Nc1ccc(SC(F)(F)F)cc1)Oc1ccc(Cl)cc1` (stereo not given): the max response, negative = inhibition was inactive: -21.3%.
The value for `Cc1cccc(C)c1OP(C)(=O)Nc1ccc(SC(F)(F)F)cc1` (stereo not given) was inactive: 4.2%; that for `Cc1cc(C)cc(OP(C)(=O)Nc2ccc(SC(F)(F)F)cc2)c1` (stereo not given) was inactive: 10.7%; that for `CCc1ccc(OP(C)(=O)N2CCN(c3ccc([N+](=O)[O-])cc3)CC2)cc1` (stereo not given) was inactive: 4.9%.
As for `CP(=O)(NC(=O)Nc1ccccc1)Oc1ccccc1` (stereo not given), the max response, negative = inhibition was inactive: 6.49%.
As to `O=[N+]([O-])c1cc([N+](=O)[O-])c(O)c([N+](=O)[O-])c1.c1ccc(Oc2ccncc2)cc1`, the max response, negative = inhibition was inactive: -19.4%.
On to `CCOC(=O)c1ccc(NP(C)(=O)Oc2ccc(OC)cc2)cc1` (stereo not given), for which the max response, negative = inhibition is inactive: 8.6%.
`CCOP(C)(=S)SCC(=O)NC(C)C(=O)O` (stereo not given): the max response, negative = inhibition was inactive: -24.8%.
Consider `CP(=O)(Nc1ccccn1)Oc1ccc(Cl)cc1` (stereo not given), for which the max response, negative = inhibition is inactive: 10.5%.
For `CN(Cc1cccnc1)C(=O)COc1ccc(Cl)c(Cl)c1.O=[N+]([O-])c1cc([N+](=O)[O-])c(O)c([N+](=O)[O-])c1`, the max response, negative = inhibition is inactive: 7.1%.
Turning to `O=[N+]([O-])c1cc([N+](=O)[O-])c(Nc2nnnn2CCO)c([N+](=O)[O-])c1`, the max response, negative = inhibition is inactive: -21.8%.
Consider `CN1CCCCC1COC(=O)C1(O)c2ccccc2CCc2ccccc21` (stereo not given), for which the max response, negative = inhibition is inactive: -9.96%.
On to `COc1ccccc1OP(C)(=O)Nc1c(C)cccc1C` (stereo not given), for which the max response, negative = inhibition was inactive: -16.2%.
Turning to `CP(=O)(Nc1ccc(SC(F)(F)F)cc1)Oc1ccccc1` (stereo not given), the max response, negative = inhibition is inactive: -20.1%.
The value for `CCCOc1ccc(NP(C)(=O)Oc2ccc(Cl)cc2)cc1` (stereo not given) was inactive: 6.07%; that for `CC1=NCCc2c1[nH]c1ccccc21.O=[N+]([O-])c1cc([N+](=O)[O-])c(O)c([N+](=O)[O-])c1` was inactive: 0%; that for `COc1ccccc1OP(C)(=O)Nc1cccc(Br)c1` (stereo not given) was inactive: 1.41%.
As to `CCOC(=O)c1ccc(NP(C)(=O)Oc2cc(C)cc(C)c2)cc1` (stereo not given), the max response, negative = inhibition is inactive: -12.1%.
For the compound `Cc1cc(C)cc(OP(C)(=O)Nc2ccc(C)cc2C)c1` (stereo not given), the max response, negative = inhibition is inactive: -12.7%.
For the compound `Cc1ccc(C)c(NP(C)(=O)Oc2ccccc2)c1` (stereo not given), the max response, negative = inhibition is inactive: 5.41%.
Regarding `CP(=O)(Nc1cccc(Br)c1)Oc1ccccc1` (stereo not given), the max response, negative = inhibition is inactive: -5.04%.
In the case of `Cc1cc(C)cc(OP(C)(=O)Nc2ccccn2)c1` (stereo not given), the max response, negative = inhibition is inactive: 14%.
